Holding throughout (test): FOREST: bead pull-down of RNA structure library v1, barcode microarray; U1A/LIN28A: 20 mM HEPES pH 7.5, 80 mM KCl, 20 mM NaCl, 10% glycerol, 2 mM DTT, 0.1 ug/uL BSA, 4 C; BG4/CIRBP/DHX36: 10 mM Tris-HCl pH 7.5, 100 mM KCl (or LiCl),; high values mean tight binding
Experiment [1] concerns the target T1, LIN28A (human?, UniProt Q9H9Z2 1-209).
T1 sequence: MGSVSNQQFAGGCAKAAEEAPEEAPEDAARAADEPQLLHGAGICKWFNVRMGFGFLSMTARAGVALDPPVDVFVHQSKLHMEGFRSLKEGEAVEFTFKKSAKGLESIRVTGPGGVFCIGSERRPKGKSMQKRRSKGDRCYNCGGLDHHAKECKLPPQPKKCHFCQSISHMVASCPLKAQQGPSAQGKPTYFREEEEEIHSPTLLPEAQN

For experiment [2], the target named is T2, CIRBP (Homo sapiens, UniProt Q14011 1-172).
T2 sequence: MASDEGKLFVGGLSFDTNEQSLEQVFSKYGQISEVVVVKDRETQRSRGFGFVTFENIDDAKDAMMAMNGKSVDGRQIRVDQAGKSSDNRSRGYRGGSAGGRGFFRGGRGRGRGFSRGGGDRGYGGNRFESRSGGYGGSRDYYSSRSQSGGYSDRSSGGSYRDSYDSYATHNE

Experiment [3] concerns the target T3, DHX36 (Homo sapiens, UniProt Q9H2U1 1-1008).
T3 sequence: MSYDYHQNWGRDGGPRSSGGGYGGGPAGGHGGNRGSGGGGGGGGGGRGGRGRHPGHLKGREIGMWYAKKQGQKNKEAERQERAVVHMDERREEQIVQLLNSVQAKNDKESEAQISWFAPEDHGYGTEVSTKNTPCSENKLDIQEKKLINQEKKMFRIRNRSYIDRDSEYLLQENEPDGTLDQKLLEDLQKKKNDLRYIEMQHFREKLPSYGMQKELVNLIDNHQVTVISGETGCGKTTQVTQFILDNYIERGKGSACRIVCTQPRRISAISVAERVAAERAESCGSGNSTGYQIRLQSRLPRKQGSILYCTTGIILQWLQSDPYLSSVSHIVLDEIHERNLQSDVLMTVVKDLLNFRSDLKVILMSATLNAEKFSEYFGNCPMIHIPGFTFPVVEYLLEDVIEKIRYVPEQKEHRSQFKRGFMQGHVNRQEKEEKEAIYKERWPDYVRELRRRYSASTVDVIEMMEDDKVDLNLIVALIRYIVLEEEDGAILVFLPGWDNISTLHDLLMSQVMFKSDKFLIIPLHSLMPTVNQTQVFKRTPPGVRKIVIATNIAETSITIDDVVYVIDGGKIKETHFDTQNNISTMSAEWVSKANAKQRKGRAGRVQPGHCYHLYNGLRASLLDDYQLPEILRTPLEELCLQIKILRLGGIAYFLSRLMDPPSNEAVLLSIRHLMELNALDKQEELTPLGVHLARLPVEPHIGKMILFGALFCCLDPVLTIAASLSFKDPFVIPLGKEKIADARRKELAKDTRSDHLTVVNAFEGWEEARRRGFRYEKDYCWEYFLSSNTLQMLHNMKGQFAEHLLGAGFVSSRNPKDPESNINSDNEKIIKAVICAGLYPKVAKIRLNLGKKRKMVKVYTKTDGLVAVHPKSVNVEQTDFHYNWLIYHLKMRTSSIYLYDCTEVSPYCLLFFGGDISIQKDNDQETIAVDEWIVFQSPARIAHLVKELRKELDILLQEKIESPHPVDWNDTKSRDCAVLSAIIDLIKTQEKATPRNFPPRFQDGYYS

Binding signal data for 26 molecules are collected here from publication PMC7723054.

The list shows a part of the results.

B1: hsa-mir-4419b (structured_RNA)
RNA: GGGAACUUGCGGUCGUACACUAUAAGUCGGUGUACGAAGUUUCAGCUCCCAGCCACUCUGGAGGGCUGAAGCUUCGUGCAC
B1: the binding signal in experiment [1] was -0.94 z-score; in experiment [2] it was -0.373 z-score; in experiment [3], -0.402 z-score.

B2: hsa-mir-1283-2 (structured_RNA)
RNA: GGGACGUAAUCGCAAGCCAAGCCUUAGAGGUGUACGAAGUUUCAGCUUCUGUUGUCUGAAAGAAAAGAAGCUGAAGCUUCGUGCAC
Regarding B2, the binding signal in experiment [1] was -0.925 z-score; in experiment [2], -1.64 z-score; in experiment [3], -0.772 z-score.

B3: hsa-mir-548f-3 (structured_RNA)
RNA: GGGAAAGGCGAGUCUAUUUGUAAACCUGGGUGUACGAAGUUUCAGCUUUUGCAGUUUUUUUAAGUAAUUGCAAAAGCUGAAGCUUCGUGCAC
As for B3, the binding signal in experiment [1] is -0.977 z-score; in experiment [2], -0.102 z-score; in experiment [3], -0.548 z-score.

B4: hsa-mir-6074 (structured_RNA)
RNA: GGGCAAACGAAAUGUCGUCCCAGGCAGGGGUGUACGAAGUUUCAGCUUGCUCUUUGGUGGAGAUAGCUGAAGCUUCGUGCAC
On to B4, for which the values for the binding signal in experiment [1], in experiment [2] and in experiment [3] were -0.913 z-score, -0.138 z-score and 0.583 z-score, respectively.

B5: hsa-mir-3650 (structured_RNA)
RNA: GGGAUUAUGAGGAGUCACUGCGCAUAUCGGUGUACGAAGUUUCAGCGUCCUGACUGCGUGCCAGGGGCGCUGAAGCUUCGUGCAC
For the molecule B5, the binding signal is -0.945 z-score in experiment [1], -0.0256 z-score in experiment [2] and 0.859 z-score in experiment [3].

B6: hsa-mir-3122 (structured_RNA)
RNA: GGGAAAGGACUCGUCAUUCCGGAUGCUCGGUGUACGAAGUUUCAGCUCUUCUUUUGGAAGGAAGAGCUGAAGCUUCGUGCAC
Regarding B6, the binding signal is -0.967 z-score in experiment [1], -0.583 z-score in experiment [2] and 0.226 z-score in experiment [3].

B7: hsa-mir-5008 (structured_RNA)
RNA: GGGACAAAAUAUCGCAGCGUGGCAACCUGGUGUACGAAGUUUCAGCCAGUGGUGCCAUCUCCCCUGGCUGAAGCUUCGUGCAC
Turning to B7, the figures for the binding signal in experiment [1], in experiment [2] and in experiment [3] were -0.935 z-score, -1.7 z-score and -1.47 z-score, respectively.

B8: hsa-mir-4647 (structured_RNA)
RNA: GGGACCUGACGAUCUAGAUGGAGUGCUCGGUGUACGAAGUUUCAGCGGAAAGGGGAUGCAGAGCCCUGCCGCUGAAGCUUCGUGCAC
As to B8, the binding signal is -0.954 z-score in experiment [1], 0.104 z-score in experiment [2] and -0.668 z-score in experiment [3].

B9: hsa-mir-128-1 (structured_RNA)
RNA: GGGAAAUAGAGAGCUGUUCCAACGAGAUGGUGUACGAAGUUUCAGCCUGAGAGGUUUACAUUUCUCGCUGAAGCUUCGUGCAC
For B9, the binding signal in experiment [1] is -0.93 z-score; in experiment [2] it was -1.94 z-score; in experiment [3] it was -0.901 z-score.

B10: hsa-mir-377 (structured_RNA)
RNA: GGGAAGGAGAGAGCCGUUUAGCCAAAUAGGUGUACGAAGUUUCAGCGAAUUCGCUUUAUUUAUGUUGAAUCGCUGAAGCUUCGUGCAC
As to B10, the binding signal in experiment [1] is -0.959 z-score; in experiment [2], 0.825 z-score; in experiment [3], 0.674 z-score.

B11: hsa-mir-3666 (structured_RNA)
RNA: GGGACAAUGAGUCGGUUCUUGCGCGAGUGGUGUACGAAGUUUCAGCCGACUCCGUGGCAGAGUUCAGCUGAAGCUUCGUGCAC
As for B11, the binding signal is -0.931 z-score in experiment [1], 0.282 z-score in experiment [2] and -0.673 z-score in experiment [3].

B12: hsa-mir-1302-11_1302-10_1302-3_1302-2_1302-9 (structured_RNA)
RNA: GGGAAGCAGACGUACGAAUCCGCAGUCCGGUGUACGAAGUUUCAGCCCAAGCUUAGUUUGGGCUGAAGCUUCGUGCAC
For the molecule B12, the figures for the binding signal in experiment [1], in experiment [2] and in experiment [3] were -0.975 z-score, -0.402 z-score and -0.659 z-score, respectively.

B13: hsa-mir-5698 (structured_RNA)
RNA: GGGAAAUUGUGGGUCGAGCAUAUUGCCCGGUGUACGAAGUUUCAGCGUGGAAUGCAAAGUCCCACGCUGAAGCUUCGUGCAC
Take B13: the binding signal in experiment [1] is -0.972 z-score; in experiment [2], -0.958 z-score; in experiment [3], -0.735 z-score.

B14: hsa-mir-151a (structured_RNA)
RNA: GGGAAAGGCGAUGCUUAGGCUUUUGCUUGGUGUACGAAGUUUCAGCCUAGUAUGUCUCAUCCCCUACUAGGCUGAAGCUUCGUGCAC
Turning to B14, the binding signal in experiment [1] is -0.963 z-score; in experiment [2] it was -0.311 z-score; in experiment [3] it was -0.0582 z-score.

B15: hsa-mir-380 (structured_RNA)
RNA: GGGAAAGUCCGGGUCCGUAAUGUGACUUGGUGUACGAAGUUUCAGCCAUGCGCUAUCUCUGUGUCGUAUGGCUGAAGCUUCGUGCAC
Turning to B15, the binding signal in experiment [1] is -0.974 z-score; in experiment [2], -0.263 z-score; in experiment [3], 0.188 z-score.

B16: hsa-mir-4477a (structured_RNA)
RNA: GGGAACACAAGUUGGCCGUAGCAUCCAGGGUGUACGAAGUUUCAGCAUGGCAUUUAAGGAUUGCUAUGCUGAAGCUUCGUGCAC
In the case of B16, the binding signal was -0.981 z-score in experiment [1], -0.199 z-score in experiment [2] and -0.378 z-score in experiment [3].

B17: hsa-mir-7-1 (structured_RNA)
RNA: GGGAAGAUGUGGCUUCGUAACCAAUCCUGGUGUACGAAGUUUCAGCGUUGUUUUUAGAUAACUAAAUCGACAACGCUGAAGCUUCGUGCAC
As for B17, the binding signal was -0.975 z-score in experiment [1], -0.239 z-score in experiment [2] and -0.149 z-score in experiment [3].

B18: hsa-mir-4315-1_4315-2 (structured_RNA)
RNA: GGGAUUAAGACGGUGGUCUAACCCGCGUGGUGUACGAAGUUUCAGCGGACCCUCUCUCUACCUCUGCUGAAGCUUCGUGCAC
Turning to B18, the binding signal in experiment [1] is -0.943 z-score; in experiment [2], -1.32 z-score; in experiment [3], -0.736 z-score.

B19: hsa-mir-1245a (structured_RNA)
RNA: GGGACUAGCUGACAUAUGCGUUCGGAAGGGUGUACGAAGUUUCAGCAUCUGAUGUUGAAUACUCUUUAAGUGCUGAAGCUUCGUGCAC
Regarding B19, the binding signal in experiment [1] is -0.983 z-score; in experiment [2], -0.00146 z-score; in experiment [3], -0.816 z-score.

B20: hsa-mir-4520-1 (structured_RNA)
RNA: GGGAACUAAAUUGGCCGAUUCAGCUGACGGUGUACGAAGUUUCAGCCCAAAUCAGAAAAGGAUUUGGGCUGAAGCUUCGUGCAC
B20: the figures for the binding signal in experiment [1], in experiment [2] and in experiment [3] were -0.983 z-score, -0.74 z-score and -0.751 z-score, respectively.

B21: hsa-mir-127 (structured_RNA)
RNA: GGGAAACGGCGUGUAUAUCGUCAAUUCCGGUGUACGAAGUUUCAGCCUGAUUCAGAAAGAUCAUCGGGCUGAAGCUUCGUGCAC
B21: the binding signal is -0.924 z-score in experiment [1], 0.949 z-score in experiment [2] and -0.299 z-score in experiment [3].

B22: hsa-mir-7113 (structured_RNA)
RNA: GGGAAAAUGGUUCGCGUGAACACAAAGUGGUGUACGAAGUUUCAGCGAGGCCUCUUGCCAUGGCCUCCGCUGAAGCUUCGUGCAC
Turning to B22, the binding signal in experiment [1] is -0.956 z-score; in experiment [2], -0.302 z-score; in experiment [3] it was -0.731 z-score.

B23: hsa-mir-4279 (structured_RNA)
RNA: GGGAACGGGACUCGUCACGCAUCAAUGAGGUGUACGAAGUUUCAGCGCAGAUUCUCUCUCUCGCUGAAGCUUCGUGCAC
With B23, the binding signal is -0.917 z-score in experiment [1], 0.303 z-score in experiment [2] and -0.122 z-score in experiment [3].

B24: hsa-mir-571 (structured_RNA)
RNA: GGGAAGAAAUACUGGGUCUACGUCAAAAGGUGUACGAAGUUUCAGCUUCCUUGUCUGUAGCCAUGUCUAUGGGCUCUUGAGGCUGAAGCUUCGUGCAC
On to B24, for which the values for the binding signal in experiment [1], in experiment [2] and in experiment [3] were -0.985 z-score, 0.609 z-score and -0.289 z-score, respectively.

B25: hsa-mir-3185 (structured_RNA)
RNA: GGGAACAGUGCAGCAAGCGGUCACUUACGGUGUACGAAGUUUCAGCGCGGGAGCCAGGCCGCGCUGAAGCUUCGUGCAC
Consider B25, for which the results for the binding signal in experiment [1], in experiment [2] and in experiment [3] were -0.984 z-score, 0.429 z-score and 0.159 z-score, respectively.

B26: hsa-mir-8052 (structured_RNA)
RNA: GGGAGCAAGGCAGUUAUAUAAUCCCUGUGGUGUACGAAGUUUCAGCGAGCUCAGGAGCUCGCUGAAGCUUCGUGCAC
Turning to B26, the results for the binding signal in experiment [1], in experiment [2] and in experiment [3] were -0.912 z-score, -0.906 z-score and -0.771 z-score, respectively.
